Data as given in patent publication US7700122B1, “Topical compositions comprising an opioid analgesic and an NMDA antagonist” (Memorial Sloan-Kettering Cancer Center, priority 1998, dated 2010).

[^125I]Morphine [^125I-Morphine]
radioactivity in blood, brain or spinal cord (mouse, in vivo): no detectable levels of radioactivity | radioactivity in proximal unexposed tail relative to immersed distal tail (mouse, in vivo): < 1% | Radioactivity, Brain (tail immersed 3 min in 100 μCi/ml in DMSO, sampled within 5 min): 55 ± 26 cpm/g
